By UniProt entry, the sequences of proteins in these tests, tags left out.
UniProt Q92918, whole entry: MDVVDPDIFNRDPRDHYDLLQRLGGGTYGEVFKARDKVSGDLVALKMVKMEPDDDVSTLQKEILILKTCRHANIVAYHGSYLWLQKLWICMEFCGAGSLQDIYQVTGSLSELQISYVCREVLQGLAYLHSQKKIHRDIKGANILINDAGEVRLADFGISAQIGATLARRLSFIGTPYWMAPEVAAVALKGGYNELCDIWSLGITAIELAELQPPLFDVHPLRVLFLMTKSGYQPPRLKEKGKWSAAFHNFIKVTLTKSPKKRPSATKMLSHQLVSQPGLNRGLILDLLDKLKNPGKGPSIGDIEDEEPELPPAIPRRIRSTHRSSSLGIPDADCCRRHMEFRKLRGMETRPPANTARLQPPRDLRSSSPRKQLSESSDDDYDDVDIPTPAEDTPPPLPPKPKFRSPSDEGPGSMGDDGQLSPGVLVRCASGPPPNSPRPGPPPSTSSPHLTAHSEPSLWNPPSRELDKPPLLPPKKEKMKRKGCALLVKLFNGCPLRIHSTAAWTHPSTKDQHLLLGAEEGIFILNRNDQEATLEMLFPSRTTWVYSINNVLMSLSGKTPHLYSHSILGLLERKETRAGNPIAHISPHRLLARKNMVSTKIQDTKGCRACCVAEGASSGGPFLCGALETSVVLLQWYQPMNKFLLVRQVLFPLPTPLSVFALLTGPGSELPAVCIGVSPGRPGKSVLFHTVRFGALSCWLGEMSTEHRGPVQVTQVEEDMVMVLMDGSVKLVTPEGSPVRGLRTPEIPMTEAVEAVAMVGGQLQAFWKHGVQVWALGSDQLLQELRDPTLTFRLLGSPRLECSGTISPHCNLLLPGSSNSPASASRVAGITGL

In patent US20240336630A1, “MAP4K1 INHIBITORS” (Blueprint Medicines Corporation, priority 2021, published 2024):

Experiments:
[1] = system: Primary T Cell (expanded CD3+ T cells); experiment: T cell enhancement of cytokines: IL2 measurement (HTRF) in expanded CD3+ T cells stimulated with anti-CD3/anti-CD28; conditions: read-out: IL-2 Primary T Cell EC50; plate-bound anti-CD3 and soluble anti-CD28, 24 h
Procedure: T cells are isolated from whole blood of healthy donors by immunomagnetic negative selection following manufacture's protocol (StemCell Technologies, human T cell isolation kit). Purity of isolated cells is assessed by flow cytometry and yields 95-98% CD3^+ T cells. For expansion of T cells, 1×10^6 cells/well are plated in serum free cell expansion media (ThermoFisher) containing 30U of recombinant human IL2 (R&D) and stimulated with 25 ul of CD3/CD28 beads (Invitrogen) in 24 well plates for 3-4 days. T cells are then expanded in 175 cm flasks and maintained at a cell density of 1 to 2.5×10^6 cells/ml days by addition of ⅔ of fresh media every 2-3 days. After 10-14 days, cells are frozen in BamBanker freezing media (Thermo) and stored in liquid nitrogen.
For IL2 measurement, expanded CD3^+ T cells are dispensed at 100K cells/well (cultured in X-VIVO 10 Serum-free media) and are stimulated with plate-bound anti-CD3 and soluble anti-CD28 in the presence of vehicle or compound of the disclosure at various concentrations for 24 h. As outlined in the manufacturer's protocol (Cisbio), 16 μL of conditioned media is transferred to a white 384-well low volume plate. Following a 24 h incubation with the anti-IL2 antibodies, the homogenous time resolved fluorescence (HTRF) is measured.

MAP4K1 (HPK1) = MAP4K1 (HPK1) (Homo sapiens, UniProt Q92918); experiment: Inhibition of MAP4K1 biochemical enzymatic activity (EZReader 2 electrophoretic mobility shift); conditions: read-out: MAP4K1 IC50; HPK1 (Invitrogen), S6K2tide 1.5 μM, 120 min; ATP 26 μM or 1000 μM, not stated which for Table 3
Excerpt: MAP4K1 (HPK1) and relevant off-target enzymatic activity was monitored using the Perkin Elmer electrophoretic mobility shift technology platform—the EZReader 2. […] Within the linear, steady-state phase of the kinase enzymatic reaction, the mixed pool of phosphorylated (product) and non-phosphorylated (substrate) peptides was passed through the microfluidic system of the PerkinElmer EZ Reader 2, under an applied electric potential difference. The presence of the phosphate group on the product peptide provided a difference in mass and charge between that of the substrate peptide, resulting in a separation of the substrate and product pools in the sample (Perrin et al. 2010). As the product and substrate peptide mixture passes the lasers within the instrument, these pools are detected (λex=488 nm, λem=568 nm) and resolved as separate peaks. The ratio between these peaks reflects the activity of the compound at that concentration, in that well, under those conditions.
Inhibitors were dissolved in 100% DMSO at a stock concentration of 10 mM. A 100×, 10-point, 4-fold serial dilution of each inhibitor was created in 100% DMSO either manually or on a Hamilton STAR liquid handler, starting at a relevant concentration, usually 1 mM. A volume of 0.130 μL of each concentration was transferred to the relevant wells of a 384-well plate (Greiner 781 201) in duplicate using a TTPLabtech Mosquito nano-litre dispenser. Using a Multidrop Combi, the remaining constituents of the kinase reaction were added to the 130 nL of dosed compound as follows (see table below for final reaction details):
Enzyme activity assays at the ^APPKM for ATP or 1 mM ATP: In each well of a 384-well plate, 0.1-15 nM of untreated enzyme was incubated in a total of 13 μL of buffer (100 mM HEPES pH 7.5, 0.015% Brij 35, 10 mM MgCl2, 1 mM DTT) with 1.5 μM fluorescent peptide and 20-1000 μM ATP, at 25° C., for 60-180 minutes in the presence or absence of a dosed concentration series of compound (1% DMSO final concentration). The kinase reactions were stopped by the addition of 70 μl of Stop buffer (100 mM HEPES pH 7.5, 0.015% Brij 35, 35 mM EDTA and 0.2% of Coating Reagent 3 (Caliper Lifesciences)). The plates were read on a Caliper EZReader 2 as described above.

EC50 [1] [µM]	IC50 (MAP4K1 (HPK1)) [µM]	Structure (SMILES)
0.01		CCC(C)(O)c1cnc(OC)c2cnc(Nc3ccc4c(n3)[C@@H](C)C(C)(C)OC4=O)cc12 (single isomer, unassigned) [17]
	0.0143	COCC(O)c1cnc(OC)c2cnc(Nc3ccc4c(n3)[C@@H](C)C(C)(C)OC4=O)cc12 (single isomer, unassigned) [19]
	0.0395	C[C@@H]1c2nc(Nc3cc4c(C(C)(O)C5CC5)cnc(OCC(F)F)c4cn3)ccc2C(=O)OC1(C)C (single isomer, unassigned) [48]
0.273	0.0111	C[C@@H]1c2nc(Nc3cc4c(C(C)(O)C5CC5)cnc(OC5CC5)c4cn3)ccc2C(=O)OC1(C)C (single isomer, unassigned) [38]
	0.00061	CCC(C)(O)c1cnc(OC)c2cnc(Nc3ccc4c(n3)[C@@H](C)C(C)(C)OC4=O)cc12 (single isomer, unassigned) [16]
	0.00106	C[C@@H]1OC(=O)c2ccc(Nc3cc4c(C(C)(O)C5CC5)cnc(OC5CC5)c4cn3)nc2[C@H]1C (single isomer, unassigned) [26]
	0.00053	C[C@@H]1c2nc(Nc3cc4c(C(C)(O)C5CC5)cnc(OCC(F)F)c4cn3)ccc2C(=O)OC1(C)C (single isomer, unassigned) [49]
0.047	0.00046	C[C@@H]1c2nc(Nc3cc4c(C(C)(O)C5CC5)cnc(OC5CC5)c4cn3)ccc2C(=O)OC1(C)C (single isomer, unassigned) [39]
